The chains behind the UniProt entries cited, without tags or fusion partners.
UniProt P33533, whole entry: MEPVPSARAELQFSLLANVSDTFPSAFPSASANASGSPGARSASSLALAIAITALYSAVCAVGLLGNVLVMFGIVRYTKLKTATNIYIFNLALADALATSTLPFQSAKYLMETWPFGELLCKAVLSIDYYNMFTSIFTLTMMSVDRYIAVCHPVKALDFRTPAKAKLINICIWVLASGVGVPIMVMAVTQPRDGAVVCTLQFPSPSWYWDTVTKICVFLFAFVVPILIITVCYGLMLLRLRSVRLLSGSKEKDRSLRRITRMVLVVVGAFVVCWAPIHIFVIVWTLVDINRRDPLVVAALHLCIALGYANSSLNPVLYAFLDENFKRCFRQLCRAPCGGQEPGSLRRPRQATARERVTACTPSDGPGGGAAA

Each molecule was assayed against Delta-type opioid receptor (Rattus norvegicus, UniProt P33533) (assay: Displacement of [3H]DPDPE from rat cortex delta opioid receptor after 2.5 hrs by liquid scintillation counting analysis).
`NC(=O)[C@H](O)[C@H](Cc1ccccc1)NC(=O)[C@H](Cc1ccccc1)NC(=O)[C@@H]1CCCN1C(=O)[C@@H](N)Cc1ccc(O)cc1` showed a Ki of 967 nM. For `NC(=O)[C@@H](O)[C@H](Cc1ccccc1)NC(=O)[C@H](Cc1ccccc1)NC(=O)[C@@H]1CCCN1C(=O)[C@@H](N)Cc1ccc(O)cc1`, the Ki was 3840 nM. `NC(=O)[C@@H](O)[C@@H](Cc1ccccc1)NC(=O)[C@H](Cc1ccccc1)NC(=O)[C@@H]1CCCN1C(=O)[C@@H](N)Cc1ccc(O)cc1` gave a Ki of 563 nM. `NC(=O)[C@H](O)[C@@H](Cc1ccccc1)NC(=O)[C@H](Cc1ccccc1)NC(=O)[C@@H]1CCCN1C(=O)[C@@H](N)Cc1ccc(O)cc1` gave a Ki of 462 nM.
